For test [1], the target named is human mu opioid receptor (hMOR) (Homo sapiens, UniProt P35372). In words: biochemical.
A further test addresses Ala^348,353 hMOR (Homo sapiens, UniProt P35372, C348A/C353A). Kind of test: biochemical. The format is binding.

Amino acid sequences for entries named in this document (tags omitted).
UniProt P35372, whole entry: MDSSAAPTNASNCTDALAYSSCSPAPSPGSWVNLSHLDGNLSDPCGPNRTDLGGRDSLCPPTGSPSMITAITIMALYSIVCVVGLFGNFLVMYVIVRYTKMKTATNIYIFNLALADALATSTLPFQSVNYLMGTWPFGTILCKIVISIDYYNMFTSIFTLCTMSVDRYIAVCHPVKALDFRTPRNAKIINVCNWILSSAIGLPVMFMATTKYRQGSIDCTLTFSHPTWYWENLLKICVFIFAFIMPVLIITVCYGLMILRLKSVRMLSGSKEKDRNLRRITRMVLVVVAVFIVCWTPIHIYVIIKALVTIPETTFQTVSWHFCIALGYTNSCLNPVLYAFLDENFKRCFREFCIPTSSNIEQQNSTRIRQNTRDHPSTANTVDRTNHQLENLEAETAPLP
UniProt P35372, whole entry C348A/C353A: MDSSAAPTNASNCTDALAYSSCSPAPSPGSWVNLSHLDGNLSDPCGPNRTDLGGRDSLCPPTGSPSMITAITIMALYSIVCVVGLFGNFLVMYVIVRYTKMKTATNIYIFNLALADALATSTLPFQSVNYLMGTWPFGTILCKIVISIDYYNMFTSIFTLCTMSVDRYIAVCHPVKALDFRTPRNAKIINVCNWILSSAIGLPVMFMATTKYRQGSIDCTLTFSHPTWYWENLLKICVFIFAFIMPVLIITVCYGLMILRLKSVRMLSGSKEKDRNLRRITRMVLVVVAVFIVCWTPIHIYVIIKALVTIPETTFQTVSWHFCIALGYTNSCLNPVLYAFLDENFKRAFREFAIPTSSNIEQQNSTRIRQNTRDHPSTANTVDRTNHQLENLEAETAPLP

Structures are written as SMILES.

A word on the Ki: it is the dissociation constant of the complex between target and ligand, obtained from inhibition or displacement.

For `C[C@@H](NC(=O)[C@@H](N)Cc1ccc(O)cc1)C(=O)N[C@@H](Cc1ccccc1)C(=O)NCC(=O)N[C@@H](Cc1ccc(O)cc1)C(=O)N1CCC[C@H]1C(=O)N[C@@H](CO)C(N)=O` [Dermorphin], the Ki in test [1] turned out to be 4.1 ± 1.7 nM; on Ala^348,353 hMOR it was 0.26 ± 0.1 nM.

With `Oc1ccc2c3c1O[C@H]1c4[nH]c5ccccc5c4C[C@@]4(O)[C@@H](C2)N(CC2CC2)CC[C@]314` [Naltrindole], the Ki in test [1] is 5.07 ± 0.58 nM; on Ala^348,353 hMOR, 5.42 ± 0.56 nM.

For the origin of these results see paper PMC317294 (BMC Pharmacology, 2003).
